Amino acid sequences for entries named in this document (tags omitted).
UniProt P32245, whole entry: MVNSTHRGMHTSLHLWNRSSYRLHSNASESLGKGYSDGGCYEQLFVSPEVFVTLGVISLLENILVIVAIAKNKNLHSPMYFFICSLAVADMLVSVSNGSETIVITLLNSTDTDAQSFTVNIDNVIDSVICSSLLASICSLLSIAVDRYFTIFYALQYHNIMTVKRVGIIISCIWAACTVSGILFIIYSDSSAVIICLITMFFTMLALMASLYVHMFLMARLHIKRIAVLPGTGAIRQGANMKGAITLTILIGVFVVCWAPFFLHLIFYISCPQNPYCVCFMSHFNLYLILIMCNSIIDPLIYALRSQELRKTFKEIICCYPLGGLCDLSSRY

According to patent publication US20100324036A1, “SUBSTITUTED IMIDAZOPYRIDINE DERIVATIVES AS MELANOCORTIN-4 RECEPTOR ANTAGONISTS” (SANTHERA PHARMACEUTICALS (SCHWEIZ) AG, priority 2007, published 2010):

Biological target: hMC-4R (Homo sapiens, UniProt P32245)
Assay: Membrane binding assay, competition with fluorescence labeled NDP-alpha-MSH (fluorescence polarization)
Details: read-out: hMC-4R binding assay IC50/nM; HEK293 cell membrane preparations; tested form: HCOOH

SMILES: CC(C)CCN(CCC(C)C)C(=O)c1ccc2nc(-c3cnc4c(c3)OCCN4C)c(CCCN3CCCC3)n2c1
- IC50: < 100 nM
